Measurements: patent publication US4783441A, “Aqueous protein solutions stable to denaturation” (Hoechst Aktiengesellschaft, priority 1979, dated 1988)

Assays:
Assay type in all cases: physicochemical
[1] = Adsorption of human fibroblast interferon on polystyrene beads, biological activity in filtrate, Example 15
Procedure: 10 ml of an aqueous suspension of polystyrene beads (Dow Latex®) having an average diameter of 0.481 μm were divided in two aliquots, one of which remained untreated, while the other was shaken for two days at room temperature with 50 mg of block polymer consisting of a linear 1.2-polypropylene glycol chain with an average molecular weight of 1750 (Dalton), to which on each side 10% of polyethylene glycol had been attached by polymerisation. The excess block polymer was then removed by dialysis against an aqueous solution containing 150 ppm of the same polymeric, surface-active substance.
Two samples of 3 ml each of a solution of 10 000 units of human fibroblast interferon in a phosphate buffer, pH 7, were prepared and each soluton was shaken at 5° C. for 20 hours with 500 μl each of the untreated polystyrene suspension or the polystyrene suspension treated as described above, the latter still containing 150 ppm of the block polymer. […] The biological activity of the interferon in the filtrate was determined. In the solutions which were in contact with the untreated polystyrene beads, less than 1% of the calculated activity was determined. In the solutions which were in contact with the polystyrene beads treated as described above, more than 95% of the activity which was determined at the beginning of the test were retained.

[2] = Shaking test of human fibroblast interferon solution, biological activity, Example 14
Procedure: In the five former samples a loss of more than 97% of the biological activity was determined after 2 days.

[3] = Shaking test of albumin solutions at 37° C. (turbidity from denatured protein), Example 1b; conditions: 0.1% solution in 0.01M phosphate buffer pH 7, shaken at 37° C.
Source text: The two former samples became strongly turbid after 7 and 30 days, respectively, resulting from denatured protein.

Row | Substance | biological activity in filtrate, of the calculated activity ([1]; 10 000 units in phosphate buffer pH 7, shaken at 5° C. for 20 hours with untreated polystyrene beads) | biological activity retained in filtrate, of activity at beginning of test ([1]; shaken at 5° C. for 20 hours with polystyrene beads treated with block polymer (1.2-PPG MW 1750, 10% PEG each side), 150 ppm present) | loss of biological activity ([2]; 5000 units in phosphate buffer pH 7, shaken at 37° C., after 2 days, without stabilizer) | biological activity in samples containing stabilizer ([2]; shaken at 37° C., with 10 ppm block polymer (1.2-PPG MW 1750, 5% PEG each side)) | activity in samples containing stabilizer ([2]; shaken at room temperature, with 10 ppm block polymer stabilizer) | appearance of sample containing stabilizer ([3]; with 10 ppm block polymer (polypropylene glycol MW 1,750, 5% polyethylene glycol on each side)) | time after which sample became strongly turbid (denatured protein) ([3]; without stabilizer) [days]
1 | human fibroblast interferon: human fibroblast interferon | less than 1% | more than 95% | more than 97% | unchanged, even after several weeks | remained unchanged after several weeks |  | 
2 | human albumin: human albumin, 0.1% solution |  |  |  |  |  | still limpid after several month | 30
